PubChem BioAssay AID1509 (The Scripps Research Institute Molecular Screening Center, 2009)
This is a selection; strong and weak results do not stand in their true shares. Calls of active or inactive are those of the source. No stated cut-off is given here; in the data, active means activation above about 11%; inactive means the rest.

By UniProt entry, the sequences of proteins in these tests, tags left out.
UniProt O95977, whole entry: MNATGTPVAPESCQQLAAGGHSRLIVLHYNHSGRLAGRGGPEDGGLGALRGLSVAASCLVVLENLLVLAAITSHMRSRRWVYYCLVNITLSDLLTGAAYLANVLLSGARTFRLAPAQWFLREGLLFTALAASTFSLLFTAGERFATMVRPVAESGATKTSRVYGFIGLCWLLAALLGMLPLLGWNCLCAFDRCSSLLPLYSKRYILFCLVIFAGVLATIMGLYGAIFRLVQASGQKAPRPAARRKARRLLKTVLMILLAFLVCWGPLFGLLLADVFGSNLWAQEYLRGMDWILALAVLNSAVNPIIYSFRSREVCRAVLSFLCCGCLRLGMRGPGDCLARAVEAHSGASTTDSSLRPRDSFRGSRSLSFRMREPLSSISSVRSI

Biological target: Sphingosine 1-phosphate receptor 4 (Homo sapiens) (UniProt O95977)
Assay: activators of human S1P4 receptor – cell-based, primary screen (AID 1509);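 further: 0% = DMSO vehicle and 100% = reference agonist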
Details: S1P4-expressing cell line, agonist reporter assay; at 4.98 µM; active compounds read high

Row | SMILES | activation
1 | c1ccc(CN2CCC(Nc3ccccc3)CC2)cc1 | inactive: -1.48%
2 | N#Cc1ccc(C(=O)NCC2(N3CCCCC3)CCCCC2)cc1 | inactive: 2.51%
3 | N/C(=N\O)c1c(N)no[n+]1[O-] | inactive: 1.41%
4 | O=C(OC1CN2CCC1CC2)C1c2ccccc2C=Cc2ccccc21 (centres undefined) | inactive: -0.83%
5 | COc1ccc(C(=O)NCC2(N3CCOCC3)CCCCC2)cc1OC | inactive: -0.24%
6 | CCC(CO)(C(=O)OC1CN2CCC1CC2)c1ccccc1 (centres undefined) | inactive: -0.37%
7 | COc1cc(OC)cc(C(=O)NCC2(N3CCOCC3)CCCCC2)c1 | inactive: -0.97%
8 | CCCOc1ccc(C)cc1CN(CCCl)CCCl | inactive: -2.78%
9 | CCOc1ncccc1C(=O)NCC1(N2CCOCC2)CCCCC1 | inactive: 0.85%
10 | CC(C)(C)OC(=O)N1CCC(Nc2ccccc2)CC1 | inactive: 0.63%
11 | CCN1CCC(Nc2cccc(F)c2)CC1 | inactive: 0.08%
12 | CN(C)c1ccc(C(=O)NCC2(N3CCCCC3)CCCCC2)cc1 | inactive: 0.66%
13 | Cc1ccc(OCC(C)C)c(CN(CCCl)CCCl)c1 | inactive: 0.29%
14 | CCOc1ccc(C)cc1CN(CCCl)CCCl | inactive: 1.34%
15 | COc1ccc(NC2CCN(CCc3ccccc3)CC2)c(OC)c1 | inactive: -1.65%
16 | O=C(NCC1(N2CCOCC2)CCCCC1)c1cc2ccccc2o1 | inactive: -0.36%
17 | CCOC(=O)N1CCC(Nc2ccc(OC)cc2)CC1 | inactive: 0%
18 | N#CC1(Nc2ccccc2)CCN(Cc2ccccc2)CC1 | inactive: 1.08%
19 | O=C(OC1CN2CCC1CC2)C1c2ccccc2Oc2ccccc21 (centres undefined) | inactive: 2.14%
20 | COc1ccc(C(=O)NCC2(N3CCCCC3)CCCCC2)c(OC)c1OC | inactive: 0.32%
21 | CN1CCC(Nc2cccc(F)c2)CC1 | inactive: -1.08%
22 | CN(C)c1cccc(C(=O)NCC2(N3CCCCC3)CCCCC2)c1 | inactive: 1.41%
23 | COc1ccc(CN(CCCl)CCCl)cc1Cl | inactive: 0.17%
24 | CC(C)c1ccc(NC2CCN(C(=O)OC(C)(C)C)CC2)cc1 | inactive: -1.6%
25 | CN1CCN(CCOC(=O)C(O)(c2ccccc2)c2ccccc2)CC1 | inactive: -0.58%
26 | COc1ccc(NC2CCN(C(=O)OC(C)(C)C)CC2)cc1 | inactive: -2.29%
27 | O=C(NCC1(N2CCOCC2)CCCCC1)c1cc(=O)[nH]c2ccccc12 | inactive: -2.15%
28 | O=C(NCC1(N2CCCCC2)CCCCC1)c1cccc([N+](=O)[O-])c1 | inactive: -0.64%
29 | N#CC1(Nc2ccccc2)CCN(CCc2ccccc2)CC1 | inactive: -0.11%
